According to the NIST ThermoML archive (doi:10.1016/j.jct.2015.02.007):
± gives the expanded uncertainty stated by the source.

Experiment: xn = mol fraction of the nth substance listed
Conditions: 100 kPa, Liquid; for mass density: Vibrating tube method; for speed of sound: Pulse-echo method

OCCOCCOCCOCCO [tetraethylene glycol] + O
Conditions	mass density [kg/m3]	speed of sound [m/s]
278.15 K, x1 = 0.0116	1018.94 ± 0.33	–
278.15 K, x1 = 0.0203	1031.27 ± 0.27	–
278.15 K, x1 = 0.0406	1055.35 ± 0.24	–
278.15 K, x1 = 0.0605	1073.22 ± 0.2	–
278.15 K, x1 = 0.0806	1086.77 ± 0.17	–
278.15 K, x1 = 0.1024	1097.77 ± 0.14	–
278.15 K, x1 = 0.1511	1113.07 ± 0.14	–
278.15 K, x1 = 0.2006	1121.28 ± 0.14	–
278.15 K, x1 = 0.25	1125.88 ± 0.14	–
278.15 K, x1 = 0.3012	1128.73 ± 0.14	–
278.15 K, x1 = 0.4024	1131.71 ± 0.14	–
278.15 K, x1 = 0.4964	1133.14 ± 0.14	–
278.15 K, x1 = 0.5985	1134.11 ± 0.15	–
278.15 K, x1 = 0.7018	1134.76 ± 0.15	–
278.15 K, x1 = 0.759	1135.01 ± 0.16	–
278.15 K, x1 = 0.8201	1135.22 ± 0.16	–
278.15 K, x1 = 0.8353	1135.27 ± 0.16	–
278.15 K, x1 = 0.8804	1135.4 ± 0.16	–
278.15 K, x1 = 0.9237	1135.52 ± 0.16	–
278.15 K, x1 = 0.9719	1135.68 ± 0.17	–
278.15 K, x1 = 1	1135.81 ± 0.17	–
283.15 K, x1 = 0.0116	1018.15 ± 0.32	–
283.15 K, x1 = 0.0203	1030.12 ± 0.26	–
283.15 K, x1 = 0.0406	1053.44 ± 0.23	–
283.15 K, x1 = 0.0605	1070.73 ± 0.19	–
283.15 K, x1 = 0.0806	1083.86 ± 0.17	–
283.15 K, x1 = 0.1024	1094.55 ± 0.14	–
283.15 K, x1 = 0.1511	1109.47 ± 0.14	–
283.15 K, x1 = 0.2006	1117.51 ± 0.14	–
283.15 K, x1 = 0.25	1122.06 ± 0.14	–
283.15 K, x1 = 0.3012	1124.88 ± 0.14	–
283.15 K, x1 = 0.4024	1127.86 ± 0.14	–
283.15 K, x1 = 0.4964	1129.28 ± 0.14	–
283.15 K, x1 = 0.5985	1130.23 ± 0.15	–
283.15 K, x1 = 0.7018	1130.86 ± 0.15	–
283.15 K, x1 = 0.759	1131.1 ± 0.15	–
283.15 K, x1 = 0.8201	1131.3 ± 0.16	–
283.15 K, x1 = 0.8353	1131.35 ± 0.16	–
283.15 K, x1 = 0.8804	1131.46 ± 0.16	–
283.15 K, x1 = 0.9237	1131.58 ± 0.16	–
283.15 K, x1 = 0.9719	1131.73 ± 0.17	–
283.15 K, x1 = 1	1131.85 ± 0.17	–
288.15 K, x1 = 0.0005	–	1469 ± 1.4
288.15 K, x1 = 0.0009	–	1471.3 ± 1.4
288.15 K, x1 = 0.0021	–	1477.2 ± 1.4
288.15 K, x1 = 0.0036	–	1485.1 ± 1.4
288.15 K, x1 = 0.0058	–	1496.6 ± 1.4
288.15 K, x1 = 0.0082	–	1508.9 ± 1.4
288.15 K, x1 = 0.0116	1017.08 ± 0.31	–
288.15 K, x1 = 0.0174	–	1554 ± 1.4
288.15 K, x1 = 0.0203	1028.71 ± 0.26	–
288.15 K, x1 = 0.0206	–	1569.1 ± 1.4
288.15 K, x1 = 0.0244	–	1586.3 ± 1.3
288.15 K, x1 = 0.0292	–	1606.5 ± 1.3
288.15 K, x1 = 0.0332	–	1622.3 ± 1.3
288.15 K, x1 = 0.0388	–	1642.9 ± 1.3
288.15 K, x1 = 0.0406	1051.33 ± 0.23	–
288.15 K, x1 = 0.0427	–	1656 ± 1.2
288.15 K, x1 = 0.0466	–	1668.2 ± 1.2
288.15 K, x1 = 0.0518	–	1683.2 ± 1.2
288.15 K, x1 = 0.0579	–	1698.5 ± 1.2
288.15 K, x1 = 0.0605	1068.11 ± 0.19	–
288.15 K, x1 = 0.0648	–	1713.3 ± 1.2
288.15 K, x1 = 0.0698	–	1722.6 ± 1.1
288.15 K, x1 = 0.0751	–	1731.1 ± 1.1
288.15 K, x1 = 0.0804	–	1738.4 ± 1.1
288.15 K, x1 = 0.0806	1080.87 ± 0.16	–
288.15 K, x1 = 0.0819	–	1740.2 ± 1.1
288.15 K, x1 = 0.0874	–	1746.4 ± 1.1
288.15 K, x1 = 0.0942	–	1752.4 ± 1.1
288.15 K, x1 = 0.0999	–	1756.3 ± 1.1
288.15 K, x1 = 0.1024	1091.26 ± 0.14	–
288.15 K, x1 = 0.1029	–	1758.1 ± 1.1
288.15 K, x1 = 0.1068	–	1760 ± 1.1
288.15 K, x1 = 0.1133	–	1762.4 ± 1.1
288.15 K, x1 = 0.1137	–	1762.5 ± 1.1
288.15 K, x1 = 0.1202	–	1764 ± 1.1
288.15 K, x1 = 0.1308	–	1765 ± 1.1
288.15 K, x1 = 0.1439	–	1764.3 ± 1.1
288.15 K, x1 = 0.1511	1105.83 ± 0.14	–
288.15 K, x1 = 0.1556	–	1762.3 ± 1.1
288.15 K, x1 = 0.1791	–	1756.2 ± 1.1
288.15 K, x1 = 0.2001	–	1749.3 ± 1.1
288.15 K, x1 = 0.2006	1113.73 ± 0.13	–
288.15 K, x1 = 0.2146	–	1744.4 ± 1.1
288.15 K, x1 = 0.2391	–	1736 ± 1.1
288.15 K, x1 = 0.25	1118.2 ± 0.13	–
288.15 K, x1 = 0.284	–	1721.3 ± 1.1
288.15 K, x1 = 0.3012	1121 ± 0.14	–
288.15 K, x1 = 0.3449	–	1703.6 ± 1.1
288.15 K, x1 = 0.4024	1123.97 ± 0.14	–
288.15 K, x1 = 0.424	–	1684.5 ± 1.1
288.15 K, x1 = 0.4964	1125.4 ± 0.14	–
288.15 K, x1 = 0.5705	–	1660.6 ± 1.1
288.15 K, x1 = 0.5985	1126.33 ± 0.15	–
288.15 K, x1 = 0.7018	1126.93 ± 0.15	–
288.15 K, x1 = 0.7053	–	1647.7 ± 1.1
288.15 K, x1 = 0.759	1127.16 ± 0.15	–
288.15 K, x1 = 0.8201	1127.35 ± 0.16	–
288.15 K, x1 = 0.8249	–	1639.8 ± 1.1
288.15 K, x1 = 0.8353	1127.39 ± 0.16	–
288.15 K, x1 = 0.8804	1127.51 ± 0.16	–
288.15 K, x1 = 0.9027	–	1636.2 ± 1.1
288.15 K, x1 = 0.9237	1127.62 ± 0.16	–
288.15 K, x1 = 0.9471	–	1634.8 ± 1.1
288.15 K, x1 = 0.9719	1127.77 ± 0.16	–
288.15 K, x1 = 1	1127.88 ± 0.17	1633.1 ± 1.1
293.15 K, x1 = 0.0003	–	1484 ± 1.5
293.15 K, x1 = 0.0008	–	1486.8 ± 1.5
293.15 K, x1 = 0.0017	–	1492 ± 1.5
293.15 K, x1 = 0.0031	–	1499.2 ± 1.4
293.15 K, x1 = 0.0052	–	1510.5 ± 1.4
293.15 K, x1 = 0.0084	–	1527.1 ± 1.4
293.15 K, x1 = 0.012	–	1545.1 ± 1.4
293.15 K, x1 = 0.0157	–	1562.1 ± 1.4
293.15 K, x1 = 0.0215	–	1587.8 ± 1.3
293.15 K, x1 = 0.0254	–	1603.5 ± 1.3
293.15 K, x1 = 0.0304	–	1622.3 ± 1.3
293.15 K, x1 = 0.0352	–	1638.8 ± 1.2
293.15 K, x1 = 0.0399	–	1653.3 ± 1.2
293.15 K, x1 = 0.0462	–	1671.1 ± 1.2
293.15 K, x1 = 0.0524	–	1686 ± 1.2
293.15 K, x1 = 0.0583	–	1698.6 ± 1.1
293.15 K, x1 = 0.0663	–	1712.8 ± 1.1
293.15 K, x1 = 0.0704	–	1719 ± 1.1
293.15 K, x1 = 0.0764	–	1726.9 ± 1.1
293.15 K, x1 = 0.0808	–	1731.8 ± 1.1
293.15 K, x1 = 0.0831	–	1734.2 ± 1.1
293.15 K, x1 = 0.0858	–	1736.6 ± 1.1
293.15 K, x1 = 0.0892	–	1739.5 ± 1.1
293.15 K, x1 = 0.0932	–	1742.3 ± 1.1
293.15 K, x1 = 0.0947	–	1743.3 ± 1.1
293.15 K, x1 = 0.1007	–	1746.6 ± 1.1
293.15 K, x1 = 0.1017	–	1747.1 ± 1.1
293.15 K, x1 = 0.1087	–	1749.8 ± 1.1
293.15 K, x1 = 0.1105	–	1750.3 ± 1.1
293.15 K, x1 = 0.1161	–	1751.5 ± 1.1
293.15 K, x1 = 0.1187	–	1752 ± 1.1
293.15 K, x1 = 0.1337	–	1752.5 ± 1.1
293.15 K, x1 = 0.143	–	1751.5 ± 1.1
293.15 K, x1 = 0.1574	–	1748.7 ± 1.1
293.15 K, x1 = 0.1704	–	1745.1 ± 1.1
293.15 K, x1 = 0.2166	–	1729.1 ± 1.1
293.15 K, x1 = 0.2475	–	1717.8 ± 1.1
293.15 K, x1 = 0.2809	–	1706.4 ± 1.1
293.15 K, x1 = 0.3333	–	1690.5 ± 1.1
293.15 K, x1 = 0.396	–	1674.7 ± 1.1
293.15 K, x1 = 0.4747	–	1659 ± 1.1
